For one experiment, the target named is SAR1B (human) (UniProt Q9Y6B6). Description: liposome flotation assay; SAR1 on liposomes; SEC23A and SEC23B added both in competition, without or with SEC31A-af; SYPRO-Ruby staining of SAR1 and immunoblot of SEC23; SEC23A signal normalized to SAR1. A general note: In western blotting, separated proteins are transferred to a membrane and probed.
For a further experiment, the target named is SAR1B>A-helix (human) (UniProt Q9Y6B6). The experiment is described as above.

The chains behind the UniProt entries cited, without tags or fusion partners. Where a name states a change or a piece, a line headed by the entry shows the natural chain unless it says otherwise.
UniProt Q15436: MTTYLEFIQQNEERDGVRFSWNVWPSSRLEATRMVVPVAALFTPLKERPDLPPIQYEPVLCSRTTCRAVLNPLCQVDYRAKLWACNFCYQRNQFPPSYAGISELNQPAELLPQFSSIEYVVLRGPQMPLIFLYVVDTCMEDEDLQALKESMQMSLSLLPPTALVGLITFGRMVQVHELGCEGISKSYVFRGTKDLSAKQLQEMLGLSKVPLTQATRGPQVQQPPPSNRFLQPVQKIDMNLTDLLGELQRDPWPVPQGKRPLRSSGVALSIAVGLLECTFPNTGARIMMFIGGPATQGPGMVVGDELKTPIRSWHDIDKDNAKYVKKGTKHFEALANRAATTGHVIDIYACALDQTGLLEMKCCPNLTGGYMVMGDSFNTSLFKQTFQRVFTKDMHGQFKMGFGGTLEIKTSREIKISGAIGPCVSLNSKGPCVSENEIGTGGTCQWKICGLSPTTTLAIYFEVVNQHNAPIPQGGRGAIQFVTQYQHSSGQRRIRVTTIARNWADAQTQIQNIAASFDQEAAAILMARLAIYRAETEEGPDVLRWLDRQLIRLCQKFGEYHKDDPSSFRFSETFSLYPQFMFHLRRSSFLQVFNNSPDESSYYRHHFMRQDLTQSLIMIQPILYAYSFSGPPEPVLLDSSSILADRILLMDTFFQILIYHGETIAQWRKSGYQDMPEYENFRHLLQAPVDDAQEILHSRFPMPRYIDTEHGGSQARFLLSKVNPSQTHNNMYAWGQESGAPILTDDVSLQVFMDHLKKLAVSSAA

As for “SEC23A (from UniProt Q15436 1-765; O94855 1-1032) (complex)”, in the experiment with SAR1B (human), the fold binding relative to SAR1A, with SEC31A-af added was determined as 5 fold and the fold recruitment relative to SAR1A stood at 5 fold. Further, in the experiment with SAR1B>A-helix (human), the fold reduction of binding (reference not clearly named) is 2 fold.

The values are drawn from PMC7307210.
